## Ab-14 heavy chain CDR variants: yeast mating affinities

Data: MIT Lincoln Laboratory AlphaSeq set, Li et al. 2023, doi:10.1038/s41467-023-39022-2, as distributed in FLAb.

Target peptide (SARS-CoV-2 spike, HR2 region): PDVDLGDISGINAS

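The parent was found by panning a naive human phage display library on the peptide. These sequences belong to a second round, designed from the earlier measurements on random variants of the parent. Their group label is 14H_GPLM_Gen (GPLM: also part of the Gaussian process libraries; Gen: genetic algorithm; a sequence that several methods proposed may carry one label only). Affinity was read by AlphaSeq, a pooled yeast mating assay with surface-displayed partners. The frequency of each diploid, read from paired DNA barcodes, reflects how well the two displayed proteins bind. The ratio of observed to expected reads was calibrated, replicate by replicate, on BCL2-family standards whose Kd was known from biolayer interferometry. Each pool was mated in six replicate cultures.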

Each scFv is VH, three GGGGS repeats, VL, as in the parent Ab-14, and differs from it in the CDRs of the heavy chain only.
VH: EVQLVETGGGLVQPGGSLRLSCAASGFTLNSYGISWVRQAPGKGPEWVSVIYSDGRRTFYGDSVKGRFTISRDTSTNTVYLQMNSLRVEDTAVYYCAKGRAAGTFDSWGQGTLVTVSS
VL: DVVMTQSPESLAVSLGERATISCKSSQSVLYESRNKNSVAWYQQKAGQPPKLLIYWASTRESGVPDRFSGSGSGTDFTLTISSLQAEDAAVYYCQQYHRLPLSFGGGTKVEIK

The parent's heavy chain CDRs are GFTLNSYGIS, VIYSDGRRTFYGDSVK, GRAAGTFDS; each variant's own CDRs replace them letter for letter. The read-out is the apparent dissociation constant on a log10 scale (nM): the lower, the stronger. "n.d." means that the variant was in the library but no mating with the target was seen in that replicate; the authors take this as a sign of poor binding, and no number exists.

CDR-H1,CDR-H2,CDR-H3,"log10 Kd, replicates",signal with controls
GFELNSYGIS,VIYSDGRRTFYGDAVK,GRTAGTFDS,0.65 0.30 0.56 0.54 0.47 0.49,1/18 (2.99)
GFSLNSYGIS,VIYSDGRRTFYGDSVK,GQTAGTFDA,0.25 -0.24 0.41 -0.32 0.06 -0.23,0/18
GFTLNSYGIS,VIYSDGKRTFYIDSVK,GRVAGTFDS,n.d. 0.40 n.d. n.d. n.d. n.d.,0/18
GFGLNSYGIS,VIYSDGRRTFYGDSVK,GQTAGTFDS,1.04 1.26 0.16 0.98 1.05 0.95,0/18
GFTLSSYGIS,VIYSDGKRTFYGDSVK,GRTAGTFDS,0.45 0.54 0.16 0.17 -0.03 0.79,0/18
GFTLDSYGIS,VIYSDGRRTFYADSVK,GRAAGTFDR,n.d. 1.33 1.51 1.67 0.99 n.d.,0/18
GFGLNSYGIS,VIYSDGRRTFYQDSVK,GQAAGTFDS,2.20 1.14 1.86 1.06 1.77 1.67,0/18
GFTLNSYGIS,VIYSDGRRTFYKDSVK,GREAGTFDT,1.54 0.12 1.21 -0.09 -0.17 0.17,0/18
GFSLNSYGIS,VIYSDGRRTYYGDSVK,GQAAGTFDS,0.67 -0.13 0.64 0.95 0.68 1.35,0/18
GFSLNSYGIS,VIYSDGKRTFYADSVK,GKAAGTFDS,0.04 -0.31 -0.52 -0.35 0.17 -0.72,1/18 (1.10)
GFTLNEYGIS,VIYSDGRRTFYGDSVK,GRTAGTFDM,0.09 -0.12 0.07 0.34 -0.18 0.48,1/18 (1.19)
GFTLNDYGIS,VIYSDGRRTFYADSVK,GRAAGTFDK,0.52 0.61 0.61 0.25 1.20 -0.17,0/18
GFNLNSYGIS,VIYSDGRRTFYGDSVK,GRMAGTFDS,1.67 1.24 0.25 0.90 1.82 0.74,0/18
GFSLNDYGIS,VIYSDGRRTFYGDSVK,GRTAGTFDA,-0.23 -0.21 -0.17 -0.57 -0.11 -0.13,1/18 (3.68)
GFSLNEYGIS,VIYSDGRRTMYGDSVK,GRAAGTFDS,0.38 -0.01 -0.24 -0.38 -0.47 -0.10,2/18 (2.15)
GFTLESYGIS,VIYSDGRRTFYIDSVK,GRAAGTFDS,n.d. n.d. n.d. n.d. n.d. n.d.,0/18
GFSLNSYGIS,VIYADGRRTFYGDSVK,GRAAGTFDQ,0.39 0.09 0.05 -0.07 0.00 -0.02,0/18
GFSLNSYGIS,VIYSDGRRTFYIDSVK,GRHAGTFDS,n.d. 1.06 n.d. n.d. n.d. 0.80,1/18 (1.34)
GFTLNSYGIS,VIYSDGRRTFYGDSVK,GQLAGTFDS,1.80 1.07 1.50 1.29 1.61 1.51,0/18
GFSLNEYGIS,VIYSDGRRTFYSDSVK,GRAAGTFDS,-0.37 -0.65 -0.08 -0.71 -0.47 -0.19,1/18 (1.60)
GFSLNSYGIS,VIYSDGRRTFYADSVK,GRTAGTFDQ,0.10 0.34 0.37 0.01 0.16 0.27,0/18
GFSLNSYGIS,VIYSDGRRTFYADNVK,GRAAGTFDS,0.76 0.60 0.15 0.03 0.63 0.49,1/18 (1.85)
GFTLNSYGIS,VIYSDGRRTFYIDSVK,GQTAGTFDS,n.d. 1.92 n.d. 2.15 1.48 2.42,1/18 (2.82)
GFTLNSYGIS,VIYSDGRRTFYADSVK,GKTAGTFDS,0.98 0.55 0.45 0.58 0.40 0.56,0/18
GFSLNSYGIS,VIYSDGRRTFYGDSVK,GKEAGTFDS,-0.01 -0.12 0.16 -0.01 -0.32 0.02,0/18
GFSLNSYGIS,VIYSDGRRTFYSDSVK,GHAAGTFDS,0.03 0.37 0.03 -0.41 -0.15 0.12,0/18
GFGLNSYGIS,VIYSDGRRTFYGDSVK,GQAAGTFDS,0.58 n.d. n.d. -0.24 n.d. n.d.,1/18 (1.02)
GFALNEYGIS,VIYSDGRRTFYGDSVK,GQAAGTFDK,1.47 1.56 0.92 1.01 1.00 1.19,0/18
GKSLNSYGIS,VIYADGRRTFYGDSVK,GRAAGTFDS,1.80 n.d. 1.39 n.d. n.d. n.d.,0/18
GFWLNEYGIS,VIYSDGRRTFYGDSVK,GQAAGTFDS,n.d. n.d. n.d. n.d. 2.37 1.34,0/18
GFSLNEYGIS,VIYSDGRRTFYGDSVK,GVAAGTFDS,0.07 0.22 0.51 0.27 0.28 0.37,0/18
GFTLNSYGIS,VIYADGRRTFYGDSVK,GEAAGTFDN,0.99 1.94 2.71 1.12 0.52 1.63,0/18
GFSLNEYGIS,VIYSDGKRTFYGDSVK,GRHAGTFDS,0.16 1.31 0.33 0.39 0.66 0.89,0/18
GFSLNSYGIS,VIYSDGRRTFYADSVK,GHAAGTFDL,0.71 0.65 0.27 0.52 0.62 0.17,0/18
GFTLYSYGIS,VIYADGRRTFYGDSVK,GRAAGTFDS,0.58 0.17 0.06 0.38 0.01 0.30,0/18
GFSLNTYGIS,VIYSDGKRTFYGDSVK,GRTAGTFDS,n.d. n.d. n.d. n.d. -0.13 -0.61,0/18
GFLLNEYGIS,VIYSDGRRTFYGDSVK,GQAAGTFDS,1.78 0.44 0.88 0.92 -0.08 0.60,0/18

Excerpt, the final 2 entries:

{"CDR-H1": "GFSLNTYGIS", "CDR-H2": "VIYSDGKRTFYGDSVK", "CDR-H3": "GRTAGTFDS", "log10 Kd, replicates": "n.d. n.d. n.d. n.d. -0.13 -0.61", "signal with controls": "0/18"}
{"CDR-H1": "GFLLNEYGIS", "CDR-H2": "VIYSDGRRTFYGDSVK", "CDR-H3": "GQAAGTFDS", "log10 Kd, replicates": "1.78 0.44 0.88 0.92 -0.08 0.60", "signal with controls": "0/18"}

Of ten entries with the parent sequence, four were seen in most replicates (averages 0.34 to 2.37), three in one and three in none, so single entries are noisy. Background: pairings of all heavy chain designs with three empty control strains gave a value in 1% of cases (median 2.08, 5th percentile 0.84). Values in that range, when seen in few replicates, are hard to tell from nonspecific mating. Also given: how often the same scFv was detected with the empty control strains, with their mean in brackets. The authors averaged sequences with at least three values out of six and counted those with two or fewer as poor binders. Values of this round are not directly comparable with the first-round values of the same sequences.